# How the values were obtained:
# Chains of the proteins cited; added tags and fusions are not shown. Lines headed by an entry give the natural chain unless they say otherwise; changes in a name come on top.
# UniProt P48146: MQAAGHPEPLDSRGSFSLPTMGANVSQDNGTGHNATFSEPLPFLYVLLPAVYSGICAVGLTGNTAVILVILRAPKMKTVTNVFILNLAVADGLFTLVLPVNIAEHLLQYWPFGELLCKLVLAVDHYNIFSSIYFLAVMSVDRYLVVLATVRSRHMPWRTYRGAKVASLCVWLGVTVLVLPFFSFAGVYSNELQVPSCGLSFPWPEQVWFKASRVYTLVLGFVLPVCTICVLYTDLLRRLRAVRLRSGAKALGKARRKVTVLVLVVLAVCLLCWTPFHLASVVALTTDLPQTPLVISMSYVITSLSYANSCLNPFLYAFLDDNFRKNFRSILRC
# [1] = Food consumption, body weight gain and organ weight in rat, continuous administration under the skin; type: in vivo
# Experimental: (§1) Wistar male rats (eight weeks age, Charles River Japan, Inc.) were naturalized with MF powdered food (Oriental Yeast, Co., Ltd.) for about one week. An osmotic pump (alzet, MINI-OSMOTIC PUMP Model 2001, release rate: 24 μl/day), wherein 200 μl of hGPR8L(1-23) [human GPR8 ligand (1-23)] dissolved in saline at the concentration of 1 mM, or 200 μl of saline was filled, was loaded under the skin (at the center of back) of the above rats anesthetized by pentobarbital (each n=6). The next day on loading was set to zero. Under free feeding of MF powdered food, until the eighth day, food consumption and body weight were measured at 8:00 and 20:00. The light period was set from 8:00 to 20:00, and the dark period was set from 20:00 to next 8:00. After measurement at 8:00 on the eighth day, the rats were slaughtered by decapitation. The weight of liver, kidney, heart, spleen, testis, fat around kidney, fat around genitals and brown fat was measured. All animals were bred for the light period of 12 hours (the light period was set from 8:00 to 20:00).
# [2] = Glucose in blood, total cholesterol and triglyceride in rat, continuous administration under the skin; type: in vivo; details: continuous s.c., eighth day
# Experimental: as §1
# Glucose in blood, total cholesterol and triglyceride on the eighth day after administration of hGPR8L(1-23) and vehicle described in (1) was measured using Fuji DRI CHEM.
# [3] = Food consumption and body weight gain in rat, intraperitoneal administration; type: in vivo
# Experimental: As Example 1, Wistar male rats (eight weeks age, Charles River Japan, Inc.) were naturalized with MF powdered food (Oriental Yeast, Co., Ltd.) for about one week. The hGPR8L(1-23) [human GPR8 ligand (1-23)] dissolved in saline at the concentration of 0.2 mg/ml and 2 mg/ml, or saline as a vehicle group was intraperistoneally administered at the ratio of 1 ml/kg just before dark period (between 19:45 and 20:00). This administration was carried out for three days (each n=10). At eight o'clock on the day after administration, food consumption and body weight were measured. All animals were bred for the light period of 12 hours, wherein the light period was set from 8:00 to 20:00, and the dark period was set from 20:00 to next 8:00.
# [4] = biological target: GPR8 (Homo sapiens, UniProt P48146); assay: Promoting activity to GTPγS binding, membrane fraction of GPR8 expressing CHO cells; type: biochemical; design: expressed in transfected cells; host or cells: CHO dhfr- cells, plasmid pAKKO-GPR8, mainly clone #17; details: various concentrations
# [5] = biological target: T1, GPR7 (Homo sapiens, UniProt P48145); assay: Promoting activity to GTPγS binding, membrane fraction of GPR7 expressing CHO cells; type: biochemical; design: expressed in transfected cells; host or cells: CHO dhfr- cells, plasmid pAKKO-Human GPR7, clones 7, 8 and 14
# T1 sequence (P48145 1-328): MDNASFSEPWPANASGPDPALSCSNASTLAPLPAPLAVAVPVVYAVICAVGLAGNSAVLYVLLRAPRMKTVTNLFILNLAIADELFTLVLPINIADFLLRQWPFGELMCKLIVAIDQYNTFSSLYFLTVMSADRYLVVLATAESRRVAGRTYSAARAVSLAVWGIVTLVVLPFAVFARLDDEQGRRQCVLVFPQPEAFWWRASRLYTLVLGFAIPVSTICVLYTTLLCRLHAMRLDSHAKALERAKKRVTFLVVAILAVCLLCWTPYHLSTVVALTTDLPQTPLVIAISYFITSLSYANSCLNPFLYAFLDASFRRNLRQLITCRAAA
# Experimental: Promoting activity for [^35S]-guanosine 5′-(γ-thio) triphosphate (GTPγS) binding to the membrane fraction of GPR7 expressing CHO cells was assayed as follows.
# The membrane fraction of the GPR7 expressing CHO cell, which was prepared by the method described in Reference Example 82, was diluted with a buffer for membrane dilution (50 mM Tris-hydrochloride buffer (pH 7.4), 5 mM MgCl2, 150 mM NaCl, 1 μM GDP) to make a cell membrane fraction solution for assay having a protein concentration of 30 mg/ml. […] After washing twice with 1.5 ml of a washing buffer (50 mM Tris-hydrochloride buffer (pH 7.4), 5 mM MgCl2, 1 mM EDTA, 0.1% BSA), radioactivity of the filter was measured using a liquid scintillation counter.
# By administering hGPR8L(1-23) and hGPR8L(1-30) at various concentrations to the membrane fraction of GPR7 expressing CHO cells in accordance with the method described in I) above, a promoting activity to GTPγS binding was measured.
# A promoting activity to GTPγS binding was measured by administering at various concentrations the human- and porcine-homologue derivatives of GPR8 ligand peptide obtained in Reference Example to the membrane fraction of GPR7 expressing CHO cells. […]
# [6] = continuous s.c. osmotic pump, 1 mM, 24 μl/day, vs vehicle group
# [7] = continuous s.c., eighth day, means ± standard error, n = 6
smiles,measurement,setting,value
CSCC[C@H](NC(=O)[C@H](CC(C)C)NC(=O)[C@H](CC(C)C)NC(=O)CNC(=O)[C@H](C)NC(=O)[C@H](C)NC(=O)[C@H](CCCNC(=N)N)NC(=O)CNC(=O)[C@@H](NC(=O)[C@@H](NC(=O)[C@H](Cc1c[nH]cn1)NC(=O)[C@H](Cc1ccc(O)cc1)NC(=O)[C@H](CCCNC(=N)N)NC(=O)[C@@H]1CCCN1C(=O)[C@H](CO)NC(=O)[C@H](C)NC(=O)[C@@H](NC(=O)[C@H](Cc1c[nH]cn1)NC(=O)[C@H](CCCCN)NC(=O)[C@H](Cc1ccc(O)cc1)NC(=O)[C@@H](N)Cc1c[nH]c2ccccc12)C(C)C)[C@@H](C)O)C(C)C)C(=O)NCC(=O)N[C@@H](CC(C)C)C(=O)O [hGPR8L(1-23)],suppression of body weight gain vs vehicle group,[1]; continuous s.c. for one week,about 10.7 g
same,food consumption in the dark period,[1]; [6],a tendency to decrease
same,food consumption in the light period,[1]; [6],no difference between both groups was observed
same,total food consumption of a day,[1]; [6],a decrease was found
same,decrease of fat around genitals vs vehicle group,"[1]; continuous s.c., eighth day",0.7 g
same,decrease of fat around kidney (white fat tissue) vs vehicle group,"[1]; continuous s.c., eighth day",1.2 g
same,decrease of liver weight vs vehicle group,"[1]; continuous s.c., eighth day",1.6 g
same,weight of organs: Brown fat,[1]; [7],0.45 ± 0.05 g
same,weight of organs: Fat around genitals,[1]; [7],5.5 ± 0.38 g
same,weight of organs: Fat around kidney,[1]; [7],3.8 ± 0.53 g
same,weight of organs: Heart,[1]; [7],1.1 ± 0.04 g
same,weight of organs: Kidney,[1]; [7],2.6 ± 0.09 g
same,weight of organs: Liver,[1]; [7],14.2 ± 0.7 g
same,weight of organs: Spleen,[1]; [7],1.0 ± 0.06 g
same,weight of organs: Testis,[1]; [7],3.4 ± 0.12 g
same,body weight gain,"[1]; continuous s.c., from zero day to the seventh day",28.9 ± 3.2 g
same,body weight (means±standard error),"[1]; continuous s.c., seventh day",364.6 ± 6.0 g
same,glucose in blood,[2],155 ± 4.5 mg/dL
same,total cholesterol in blood,[2],69.1 ± 1.8 mg/dL
same,triglyceride in blood,[2],134 ± 28 mg/dL
same,"triglyceride in blood, difference (lower) vs vehicle group",[2],at least 30 mg/dl
same,food consumption,"[3]; i.p. 2 mg/kg, all three days after administration, vs vehicle group (p<=0.05 or p<=0.01)",significant decrease
same,body weight gain,"[3]; i.p. 2 mg/kg, all three days, vs vehicle group",a tendency to decrease
same,"body weight gain, difference among the means vs vehicle group","[3]; i.p. 2 mg/kg, the first day",1.2 g
same,"body weight gain, difference among the means vs vehicle group","[3]; i.p. 2 mg/kg, the second day",3.1 g
same,"body weight gain, difference among the means vs vehicle group","[3]; i.p. 2 mg/kg, the third day",2.3 g
same,food consumption,"[3]; i.p. 0.2 and 2 mg/kg just before dark period, three days, vs vehicle group",a tendency to decrease was demonstrated depending on dose
same,promoting activity to GTPγS binding (in words),[4],apparently promoted to GTPγS binding
same,promoting activity to GTPγS binding (in words),[5],apparently promote GTPγS binding
CSCC[C@H](NC(=O)[C@H](CC(C)C)NC(=O)[C@H](CC(C)C)NC(=O)CNC(=O)[C@H](C)NC(=O)[C@H](C)NC(=O)[C@H](CCCNC(=N)N)NC(=O)CNC(=O)[C@@H](NC(=O)[C@@H](NC(=O)[C@H](Cc1c[nH]cn1)NC(=O)[C@H](Cc1ccc(O)cc1)NC(=O)[C@H](CCCNC(=N)N)NC(=O)[C@@H]1CCCN1C(=O)[C@H](CO)NC(=O)[C@H](C)NC(=O)[C@@H](NC(=O)[C@H](Cc1c[nH]cn1)NC(=O)[C@H](CCCCN)NC(=O)[C@H](Cc1ccc(O)cc1)NC(=O)[C@@H](N)Cc1c[nH]c2ccccc12)C(C)C)[C@@H](C)O)C(C)C)C(=O)NCC(=O)N[C@@H](CC(C)C)C(=O)N[C@@H](CCCNC(=N)N)C(=O)N[C@@H](CCCNC(=N)N)C(=O)N[C@@H](CO)C(=O)N1CCC[C@H]1C(=O)N[C@@H](Cc1ccc(O)cc1)C(=O)N[C@@H](CC(C)C)C(=O)N[C@@H](Cc1c[nH]c2ccccc12)C(=O)O [hGPR8L(1-30)],promoting activity to GTPγS binding (in words),[4],apparently promoted to GTPγS binding
same,promoting activity to GTPγS binding (in words),[5],apparently promote GTPγS binding

# — US7375074B2, “Body weight gain inhibitor” (priority 2001, dated 2008)
